Values quoted from earlier work, collected in patent US10428067B2, “Compounds and methods for kinase modulation” (Plexxikon Inc., priority 2017, dated 2019).

Tested on: FLT3-ITD+ AML patients
Conditions: relapsed or chemotherapy-refractory FLT3-ITD+ AML patients, phase II monotherapy (Tallman et al.); cited from earlier work

CC(C)(C)c1cc(NC(=O)Nc2ccc(-c3cn4c(n3)sc3cc(OCCN5CCOCC5)ccc34)cc2)no1 [quizartinib]
composite complete remission (CRc) rate: about 50%
